ChEMBL document CHEMBL3351521, “Benzene-1,3-dicarboxylic acid 2,5-dimethylpyrrole derivatives as multiple inhibitors of bacterial Mur ligases (MurC-MurF)” (Bioorg Med Chem, 2014)

Test system: Staphylococcus aureus
Conditions: ATCC 29213

## GENTAMICIN
  MIC: 0.5 µg/mL
